The subject of one assay is BT474-R. In words: Cell viability in resistant BT474-R versus parental BT474. Type of assay: cell-based. Particulars: cell viability 5 days post-treatment; 60 nM siRNA for nanoconstructs. How it is done: FIGS. 13A-13C show the effect of trastuzumab and siHER2-nanoconstructs on cell viability. FIG. 13A is a graph showing BT474-R to be resistant to trastuzumab, compared to parental BT474. FIG. 13B is a graph showing the ability of T-siHER2-NP^10C to achieve the same response in BT474-R and BT474 with respect to siHER2 action, while FIG. 13C is a graph showing that trastuzumab on a nanoconstruct without siHER2 (T-siSCR-NP^10C) elicits less of a response in the resistant BT474-R cells. 60 nM siRNA was used, and cell viability was measured 5 days post-treatment with media replenished overnight after treatment.
The efficacy of T-siHER2-NP^10C in intrinsically trastuzumab-resistant HER2+ cell lines (HCC1954 and JIMT1), in a parental HER2+ cell line (BT474) that responds to trastuzumab and lapatinib, and in BT474-R, a derivative cell line that was made lapatinib-resistant by long-term treatment with 1 μM lapatinib was also assessed.

The next assay has as its system HER2+ cell lines. Put plainly: Growth inhibition by siHER2 in a panel of HER2+ cell lines. The assay is classed as cell-based. The following applies: 30 μg/ml trastuzumab. The text has this: The exemplary siHER2 was selected by measuring the efficacy and specificity with which it reduced HER2 mRNA levels and growth in HER2^+ cell lines but not HER2^− cell lines.

A further assay relates to HCC1954. The following applies: in vitro and/or in mice; cited from earlier work.
Another assay relates to BT474-TRgf xenografts. In words: Tumor growth in BT474-TRgf xenografts. Type of assay: in vivo, mice. The following applies: tumor mouse model, i.v. Here is the method:
FIGS. 20A-20B show tumor growth in mice bearing trastuzumab-resistant tumor xenografts following nanoconstruct treatment. FIG. 20A is a graph showing BT474-TRgf to be resistant to trastuzumab in vitro compared to parental BT474. FIG. 20B is a graph showing tumor growth in mice bearing BT474-TRgf xenografts (n=5-7/group) post i.v. injection with saline, trastuzumab (2.5 mg/kg, twice weekly) or trastuzumab-conjugated nanoconstruct (T-NP) loaded with siHER2 or siSCR at the time points indicated by arrows. Black indicates 1.25 mg siRNA/kg, and gray indicates 2.5 mg siRNA/kg.
(§1) In another example, BT474-TRgf (BT474 variant developed to be resistant to trastuzumab by serial passaging the cells in mice, Francia et al., 2012) was used to evaluate the efficacy of T-siHER2-NP. While the BT474-TRgf cells were resistant to trastuzumab in vitro (FIG. 20A) and in a tumor mouse model (FIG. 20B), they responded to T-siHER2-NP treatment in the tumor model (FIG. 20B). siHER2 dose was 1.25-2.5 mg/siRNA and 5 animals per treatment group.

Another assay concerns BT474-TRgf. In words: Response of BT474-TRgf cells in vitro. Type of assay: cell-based. Here is the method: as §1
The next assay deals with HCC1954 tumor xenografts. Put plainly: Tumor growth in orthotopic HCC1954 tumor xenografts. The assay is classed as in vivo, mice. The following applies: multiple doses. How it is done:
In vivo gene silencing studies were performed in orthotopic mouse tumor models; 4×10^6 HCC1954 cells (unless specified otherwise) were implanted into the mammary fat pads of 5-week-old SCID mice (Charles River, Wilmington, Mass.) and allowed to grow to an average size of about 250 mm^3. Mice were then grouped and proceeded to receive a single injection (tail vein) of the nanoconstructs (T-siHER2-NP^10C or T-siSCR-NP^10C, 1.25 mg/kg siRNA), or the PBS control. The tumors were harvested four days after treatment and analyzed for HER2 protein expression by immunofluorescence as shown in FIG. 16A and quantified in FIG. 16B. […] It should be noted that 23% (p=0.27 vs. saline control) of the HER2 reduction in the siSCR control is likely due to trastuzumab on the nanoconstructs.
This response is noteworthy since HCC1954 has been established as resistant to cisplatin (I. Beyer et al., 2012), trastuzumab (I. Beyer et al., 2012), and pertuzumab (F. Henjes, et al., 2012) in vitro and/or in mice.

trastuzumab: in the assay with BT474-R, the “response of BT474-R compared to parental BT474” value was “much less responsive”. For the same substance, the “response of the HER2+ cell lines to trastuzumab” value with HER2+ cell lines was 14 out of 20 cells did not respond. The “resistance of HCC1954” value in the assay on HCC1954 is listed as “resistant”. In addition, the “response of BT474-TRgf tumors” value in the assay with BT474-TRgf xenografts is “resistant”. Moreover, the “response of BT474-TRgf cells” value with BT474-TRgf is on record as “resistant”. Further, the tumor growth entry in the assay with HCC1954 tumor xenografts is “resistance in vivo”.

These data come from US11305024B2, “Cross-linked polymer modified nanoparticles” (OREGON HEALTH & SCIENCE UNIVERSITY, priority 2015, dated 2022).
